{"source": "patent US4902799A", "about": "“Bicyclic alkoxy- and alkylthio-substituted aminoalcohols” (Maggioni-Winthrop S.p.A., priority 1985, dated 1990)", "system": "toxic adrenaline doses", "test": "Protection against toxic adrenaline doses", "assay_type": "in vivo, mouse (male mice CrI:CD 1(CR) BR)", "conditions": "14.5 mg/kg l-adrenaline i.p. 2 hrs after oral treatment, mortality at 24 hrs"}
{"substance": "Tibalosine", "values": [{"measurement": "PD50 (50% protective dose)", "value": 5.5, "unit": "mg/kg/p.o."}]}
